Biological target: D(2) dopamine receptor (Homo sapiens, UniProt P14416)
Experiment: Displacement of [3H]-YM 09151 from D2 receptor

Protein sequences, listed by entry. Tags and fused reporters are not part of them.
UniProt P14416, whole entry: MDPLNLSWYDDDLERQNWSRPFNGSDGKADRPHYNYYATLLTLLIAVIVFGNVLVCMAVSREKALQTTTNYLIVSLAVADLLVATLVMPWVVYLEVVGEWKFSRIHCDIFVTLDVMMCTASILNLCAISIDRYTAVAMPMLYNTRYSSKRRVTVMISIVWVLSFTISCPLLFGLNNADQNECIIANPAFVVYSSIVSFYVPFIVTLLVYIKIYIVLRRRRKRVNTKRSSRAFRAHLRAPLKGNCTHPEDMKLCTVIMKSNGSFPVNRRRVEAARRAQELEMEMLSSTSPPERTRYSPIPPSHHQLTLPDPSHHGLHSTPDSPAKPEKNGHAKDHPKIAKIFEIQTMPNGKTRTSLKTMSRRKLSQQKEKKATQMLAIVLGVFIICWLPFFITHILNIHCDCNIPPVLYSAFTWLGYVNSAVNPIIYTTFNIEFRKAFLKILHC

For `CC1(C)Cc2cccc3c2N1C(=O)C(N1CCN(Cc2ccc(Cl)cc2)CC1)CC3` (stereo unspecified), the Ki was 0.201 µM.

— ChEMBL document CHEMBL1136593, “Design, synthesis, and discovery of 5-piperazinyl-1,2,6,7-tetrahydro-5H-azepino[3,2,1-hi]indol-4-one derivatives: a novel series of mixed dopamine D2/D4 receptor antagonist” (Bioorg Med Chem Lett, 2003)
